Experiment: State of the liquid preparation (precipitation, homogeneity, solubility or dispersion of the salt)
Conditions: morphine 2 w/w % liquid preparation with the row's acid; wrapped cell 'small amount of' + 'precipitation' = small amount of white precipitation remained

CC(=O)Oc1ccccc1C(=O)O [acetylsalicylic acid]
Remarks (state of the liquid preparation): homogeneous solution

From patent US20180256495A1 (MEDRx Co., Ltd., priority 2008, published 2018)
